Values of other authors as cited in patent US20070218475A1, “Efficient drug screening for protein targets” (priority 2005, published 2007).

System: pancreatic tumor xenografts
Settings: nude mice; cited from earlier work

CC1=C2C[C@H]3[C@@H](CC=C4C[C@@H](O)CC[C@@]43C)[C@@H]2CC[C@]12O[C@@H]1C[C@H](C)CN[C@H]1[C@H]2C [cyclopamine]
growth of pancreatic tumor xenografts: suppress growth
